Reference: patent publication US20250361280A1 (Protagonist Therapeutics, Inc., priority 2022, published 2025)

Assays:
[1] = target: T1, ferroportin (Homo sapiens, UniProt Q9NP59); assay: FPN internalization assay (FPN activity assay), loss of ferroportin-GFP fluorescence; assay type: cell-based
T1 sequence (Q9NP59 1-571): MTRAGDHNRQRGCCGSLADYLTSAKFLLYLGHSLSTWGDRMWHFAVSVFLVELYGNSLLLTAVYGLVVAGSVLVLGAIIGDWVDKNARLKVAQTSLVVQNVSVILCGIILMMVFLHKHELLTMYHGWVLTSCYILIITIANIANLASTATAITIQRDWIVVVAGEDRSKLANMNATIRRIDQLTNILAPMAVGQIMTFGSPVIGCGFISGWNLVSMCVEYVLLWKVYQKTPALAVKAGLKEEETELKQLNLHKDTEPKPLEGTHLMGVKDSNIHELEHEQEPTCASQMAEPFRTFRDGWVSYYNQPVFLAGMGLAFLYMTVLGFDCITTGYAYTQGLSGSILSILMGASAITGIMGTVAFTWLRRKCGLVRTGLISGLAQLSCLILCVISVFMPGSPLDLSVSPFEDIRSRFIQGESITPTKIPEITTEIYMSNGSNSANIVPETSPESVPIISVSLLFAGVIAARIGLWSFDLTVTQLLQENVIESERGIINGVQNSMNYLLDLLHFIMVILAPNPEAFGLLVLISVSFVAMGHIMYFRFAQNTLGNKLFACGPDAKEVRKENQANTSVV

[2] = target: T1, ferroportin; assay: T47D internalization assay in presence of mouse serum albumin; assay type: cell-based; set-up: a human breast carcinoma adherent cell line which endogenously expresses ferroportin; host or cells: T47D; details: T47D cells, 0.5% mouse serum albumin, 1 hr incubation
Protocol: The potency of the peptides disclosed in causing ferroportin internalization was evaluated in a T47D cell-based assay. […] In this internalization assay, the potency of the test peptides was evaluated in presence of serum albumin which is the main protein component in the blood. T47D cells were maintained in RPMI media (containing required amount of fetal bovine serum) and regularly sub-cultured. In preparation for the assay, the cells were seeded in 96-well plates at a density of 80-100 k cells per well in 100 ul volume and allowed to rest overnight. On the next day, test peptides were first prepared in dilution series (10-point series, starting concentration of ˜5 μM, typically 3-4×fold dilution steps), all with 0.5% mouse serum albumin (MSA purified from mouse serum; Sigma, A3139). The test peptide dilution series were allowed to incubate at room temperature for 30 min. Then the media was aspirated from the 96-well cell plate and test peptide dilution series were added. After 1 hr incubation, the media with test peptides was aspirated out and AF647-conjugated detection peptide was added at fixed concentration of 200 nM. The AF647-conjugated detection peptide was previously verified to bind to ferroportin and cause its internalization. The cells were washed again after a 2 hr incubation in preparation for flow cytometry analysis. The Median Fluorescence Intensity (MFI) of the AF647-positive population was measured (after removing dead cells and non-singlets from the analysis). The MFI values were used to generate a dose-response curve and obtain IC50 potencies for the test peptides. The IC50 potencies were calculated by using 4-parameter non-linear fitting function in Graphpad Prism and the results are provided in Table 1C.

[3] = Table 1D, HEK293 cells stably expressing ferroportin-GFP, compound at least 18 hours, read-out: IC50: FPN
[4] = Table 1D, read-out: IC50: T47D MSA

IC50 [1, 3] [µM]	IC50 [2, 4] [nM]	Compound	further results
0.001 to 0.03	0.1 to 10	CCCCCCCCCCCCCCCC(=O)NCC[N+](C)(C)CC(=O)NCCOCCOCC(=O)NCCOCCOCC(=O)NCCCC[C@H](NC(=O)[C@@H]1CCCN1C(=O)[C@@H](NC(=O)[C@H](Cc1c[nH]cn1)NC(=O)[C@@H](NC(=O)[C@H](CCC(=O)O)NC(=O)CC(C)C)[C@@H](C)O)C(c1ccccc1)c1ccccc1)C(=O)NCc1cccnc1 [compound 75]	–
0.03 to 0.1	100 to 500	CCCCCCCCCCCCCCCC(=O)N[C@@H](CN)C(=O)NCCOCCOCC(=O)NCCOCCOCC(=O)NCCCC[C@H](NC(=O)[C@H]1NC(=O)[C@H](C(c2ccccc2)c2ccccc2)NC(=O)[C@H](Cc2c[nH]cn2)NC(=O)[C@@H](NC(=O)[C@H](CCC(=O)O)NC(=O)CC(C)C)C(C)(C)SSC1(C)C)C(=O)NCCCCc1ccccc1 [compound 174]	–
0.001 to 0.03	10 to 100	CCCCCCCCCCCCCCCC(=O)NCC[N+](C)(C)CC(=O)NCCOCCOCC(=O)NCCOCCOCC(=O)NCCCC[C@H](NC(=O)[C@@H]1CSSC[C@H](NC(=O)[C@H](CCC(=O)O)NC(=O)CC(C)C)C(=O)N[C@@H](Cc2cnc[nH]2)C(=O)N[C@@H](C(c2ccccc2)c2ccccc2)C(=O)N1)C(=O)NCCCCc1ccccc1 [compound 216]	–
> 0.5	0.1 to 10	CCCCCCCCCCCCCCCC(=O)NCC[N+](C)(C)CC(=O)NCCOCCOCC(=O)NCCOCCOCC(=O)NCCCC[C@H](NC(=O)[C@@H]1CCCN1C(=O)[C@@H](NC(=O)[C@H](Cc1c[nH]cn1)NC(=O)[C@@H](NC(=O)[C@H](CCC(=O)O)NC(=O)CC(C)C)[C@@H](C)O)C(c1ccccc1)c1ccccc1)C(=O)NCCCc1ccccc1 [compound 108]	–
0.001 to 0.03	0.1 to 10	CCCCCCCCCCCCCCCC(=O)NCCCCCC(=O)NCCOCCOCCOCCOCCC(=O)NCCCC[C@H](NC(=O)[C@@H]1CCCN1C(=O)[C@@H](NC(=O)[C@H](Cc1c[nH]cn1)NC(=O)[C@@H](NC(=O)[C@H](CCC(=O)O)NC(=O)CC(C)C)[C@@H](C)O)C(c1ccccc1)c1ccccc1)C(=O)NCCCCCc1ccccc1 [compound 92]	–

Second part, the compound before the results:

Compound	IC50 [1, 3] [µM]	IC50 [2, 4] [nM]	further results
CC(C)CC(=O)N[C@@H](CCC(=O)O)C(=O)N[C@H](C(=O)N[C@@H](Cc1c[nH]cn1)C(=O)N[C@H](C(=O)N1CCC[C@H]1C(=O)N[C@H](CCCCN)C(=O)N(Cc1ccccc1)C(CCc1ccccc1)C(N)=O)C(c1ccccc1)c1ccccc1)[C@@H](C)O (some centres unmarked) [compound 147]	–	–	IC50 [1]: 0.001 to 0.03 µM; IC50 ([2]; IC50: T47D MSA (nM, Table 1D)): 100 to 500 nM
CCCCCCCCCCCCCCCC(=O)NCC[N+](C)(C)CC(=O)NCCOCCOCC(=O)NCCOCCOCC(=O)NCCCC[C@H](NC(=O)[C@@H]1C[C@@H]2CN1C(=O)[C@H](C(c1ccccc1)c1ccccc1)NC(=O)[C@H](Cc1c[nH]cn1)NC(=O)[C@H]([C@@H](C)O)NC(=O)[C@@H](NC(=O)CC(C)C)CCCC(=O)N2)C(=O)NCCCCCc1ccccc1 [compound 113]	0.001 to 0.03	0.1 to 10	–
CC(C)CC(=O)N[C@@H](CCC(=O)O)C(=O)N[C@H](C(=O)N[C@@H](Cc1c[nH]cn1)C(=O)N[C@H](C(=O)N1CCC[C@H]1C(=O)N[C@H](CCCCN)C(=O)N(Cc1ccccc1)C(CC(C)C)C(N)=O)C(c1ccccc1)c1ccccc1)[C@@H](C)O (some centres unmarked) [compound 145]	0.03 to 0.1	100 to 500	–
CCCCCCCCCCCCCCCC(=O)NCC[N+](C)(C)CC(=O)NCCOCCOCC(=O)NCCOCCOCC(=O)NCCCC[C@H](NC(=O)[C@@H]1CCCN1C(=O)[C@@H](NC(=O)[C@H](Cc1c[nH]cn1)NC(=O)[C@@H](NC(=O)[C@H](CCC(=O)O)NC(=O)CC(C)C)[C@@H](C)O)C(c1ccccc1)c1ccccc1)C(=O)NCCCCc1ccc(I)cc1 [compound 99]	–	–	IC50 [1]: 0.001 to 0.03 µM; IC50 ([2]; IC50: T47D MSA (nM, Table 1D)): 10 to 100 nM
CC(C)CC(=O)NCCCC[C@H](NC(=O)[C@@H]1CCCN1C(=O)[C@@H](NC(=O)[C@H](Cc1c[nH]cn1)NC(=O)[C@@H](NC(=O)[C@H](CCC(=O)O)NC(=O)CC(C)C)[C@@H](C)O)C(c1ccccc1)c1ccccc1)C(=O)NCCCCCc1ccccc1 [compound 5]	–	–	IC50 ([1]; Table 1C, HEK293 cells stably expressing ferroportin-GFP, compound at least 18 hours, read-out: IC50: FPN): 0.001 to 0.03 µM; IC50 ([2]; Table 1C, read-out: IC50: T47D MSA): 10 to 100 nM
